Values quoted from earlier work in paper PMC10197018 (Pediatric blood & cancer, 2021).

Conditions: reported ranges ref 45-47, 49; cited from earlier work

CCc1c2c(nc3ccc(OC(=O)N4CCC(N5CCCCC5)CC4)cc13)-c1cc3c(c(=O)n1C2)COC(=O)[C@]3(O)CC [Irinotecan]
extent of metabolic conversion of irinotecan to SN38: 0.016–0.16
